This note sets out measurements from PubChem BioAssay AID504810 (National Center for Advancing Translational Sciences (NCATS), 2011).

By UniProt entry, the sequences of proteins in these tests, tags left out.
UniProt P16473, whole entry, looked up: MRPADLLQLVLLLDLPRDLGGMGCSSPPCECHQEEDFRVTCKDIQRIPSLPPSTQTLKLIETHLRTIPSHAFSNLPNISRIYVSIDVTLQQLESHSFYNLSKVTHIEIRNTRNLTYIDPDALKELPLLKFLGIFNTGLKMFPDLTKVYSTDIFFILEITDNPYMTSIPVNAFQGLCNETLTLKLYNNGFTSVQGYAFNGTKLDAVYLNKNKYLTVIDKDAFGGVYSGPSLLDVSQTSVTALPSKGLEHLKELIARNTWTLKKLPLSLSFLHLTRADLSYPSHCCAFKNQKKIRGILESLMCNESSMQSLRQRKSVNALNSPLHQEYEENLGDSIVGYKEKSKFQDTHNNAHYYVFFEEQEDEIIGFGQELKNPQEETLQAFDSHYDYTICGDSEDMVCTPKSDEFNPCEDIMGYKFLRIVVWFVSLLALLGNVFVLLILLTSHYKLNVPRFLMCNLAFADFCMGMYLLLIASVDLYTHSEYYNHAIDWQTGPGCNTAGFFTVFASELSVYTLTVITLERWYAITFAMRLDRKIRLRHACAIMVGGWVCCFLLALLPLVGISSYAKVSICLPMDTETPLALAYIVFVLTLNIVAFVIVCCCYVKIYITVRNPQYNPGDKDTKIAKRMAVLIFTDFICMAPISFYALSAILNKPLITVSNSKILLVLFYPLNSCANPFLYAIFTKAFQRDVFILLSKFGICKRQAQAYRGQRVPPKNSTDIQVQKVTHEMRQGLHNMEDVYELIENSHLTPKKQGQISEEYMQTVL

Several values for one entry are separate records, joined by “and”; a condition that tells them apart may be missing. Equal entries are not always repeated. Only a part is listed here, and it is no random draw. Activity calls are given as the source filed them.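 How the source made its calls: active means activity change below a set negative limit, meaning inhibition stronger than a set level (cut at about -70% in these data); inconclusive means activity change between two set negative limits; inactive means the rest.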
On the % scale 0 is the no-effect control and ±100 the full control effect.

The target in the assay is Thyrotropin receptor (Homo sapiens) (UniProt P16473). Nature of the assay: Antagonists of the Thyroid Stimulating Hormone Receptor: HTS campaign. The conditions noted are these: TSHR-expressing cells, TSH-stimulated cAMP HTRF, 2 h; at 11.5 µM; hits give low values. Summed up:
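TSHR-expressing cells were treated with compounds, then stimulated with TSH at EC80 (4nM final) for 2 hours at 37 deg C. Cellular cAMP was measured by HTRF competition between lysate cAMP and cAMP-d2 for a cryptate-labelled anti-cAMP antibody.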
On the technique in general: Time-resolved FRET reads energy transfer from a long-lived donor to a nearby acceptor.
Consider `Cc1cc(SC(NC(=O)c2ccccc2)C(Cl)(Cl)Cl)nc(C(C)C)n1` (centres undefined), for which the activity change, negative = inhibition was inactive: 3.58%.

As to `CCCCOc1ccc(C(=O)NCC2(N3CCCCC3)CCCCC2)cc1OC`, the activity change, negative = inhibition is inactive: 0.651%.

Take `O=C(OC1CN2CCC1CC2)c1cccc([N+](=O)[O-])c1` (centres undefined): the activity change, negative = inhibition was inactive: 11.7%.

Turning to `CCOC(=O)c1ccc(NC(=O)C(C)(CCl)SC)cc1` (centres undefined), the activity change, negative = inhibition is inactive: -4.59%.

Consider `CCC(C)N(CC(C)C)C(=S)SC(NC(C)=O)C(Cl)(Cl)Cl` (centres undefined), for which the activity change, negative = inhibition was inactive: 27.8%.

Regarding `COP1(=S)c2c(C)nn(CCC#N)c2N=C(c2ccc(F)cc2)N1C` (centres undefined), the activity change, negative = inhibition was inactive: 2.49%.

Regarding `O=C(Nc1ccncc1[N+](=O)[O-])c1ccc([N+](=O)[O-])cc1[N+](=O)[O-]`, the activity change, negative = inhibition is inactive: 0.604%.

For `O=C(COc1ccccc1)OC1CN2CCC1CC2` (centres undefined), the activity change, negative = inhibition was inactive: 5.8%.

For the compound `COc1ccccc1CNC(=O)COC(=O)C(O)(c1ccccc1)c1ccccc1`, the activity change, negative = inhibition was inactive: 6.77%.

As for `CC(C)/C=N\N=C(\N)N[N+](=O)[O-]`, the activity change, negative = inhibition is inactive: 8.35%.

On to `O=[As](O)(c1ccccc1Br)c1ccccc1Br`, for which the activity change, negative = inhibition was inactive: -8.72%.

For `CCOP(=O)(NC(=NC(C)c1ccccc1)NC(C)c1ccccc1)OCC` (centres undefined), the activity change, negative = inhibition is inactive: 2.14%.

As for `CCC1=CC2Cc3nc4ccc(Cl)cc4c(N)c3C(C1)C2` (centres undefined), the activity change, negative = inhibition was inactive: -9.62%.

For `O=P1(Nc2ccccn2)COc2ccccc2OC1`, the activity change, negative = inhibition was inactive: -5.96%.

`CCOP(=O)(Nc1ccc(C)cn1)OCC`: the activity change, negative = inhibition is inactive: 21.4%.

With `CN(CCCl)Cc1cc(Cl)c(NC2=NCCN2)c(Cl)c1`, the activity change, negative = inhibition is inactive: -4.46%.

In the case of `CC(C)(C)C(=O)NC(Sc1ncccn1)C(Cl)(Cl)Cl` (centres undefined), the activity change, negative = inhibition was inactive: -8.34%.

For the compound `Clc1n[nH]nc1-c1nn[nH][15n]1`, the activity change, negative = inhibition is inactive: 0.557%.

For the compound `O=P1(Nc2ncccn2)COc2ccccc2OC1`, the activity change, negative = inhibition is inactive: 36.6%.

Consider `Nc1cccc([As](=O)(O)c2ccccc2)c1`, for which the activity change, negative = inhibition was inactive: -5.61%.

In the case of `O=[As](O)(c1cccs1)c1cccs1`, the activity change, negative = inhibition was inactive: 9.67%.

As for `Cc1ccc(OCC(=O)OC2CN3CCC2CC3)cc1` (centres undefined), the activity change, negative = inhibition was inactive: 6.26%.

Take `NS(=O)(=O)c1cccc(NC(=O)COC(=O)C(O)(c2ccccc2)c2ccccc2)c1`: the activity change, negative = inhibition was inactive: 3.59%.

As to `O=P1(Nc2ccc(Br)cn2)COc2ccccc2OC1`, the activity change, negative = inhibition was inactive: 14.6%.

Consider `Cc1ccc(C(=O)OC2CN3CCC2CC3)cc1` (centres undefined), for which the activity change, negative = inhibition is inactive: -1.66%.

With `CC1CCC(C(C)C)C(OP(=O)(Nc2ccccn2)c2ccccc2)C1` (centres undefined), the activity change, negative = inhibition was inactive: 7.38%.

`Cc1nn(-c2ccccc2)c2c1P(=O)(N1CCOCC1)N(C)C(c1ccccc1)=N2` (centres undefined): the activity change, negative = inhibition was inactive: 12.2%.

Take `CN(C)C1(CNC(=O)c2ccc(S(C)(=O)=O)cc2)CCCCC1`: the activity change, negative = inhibition was inactive: 6.3%.

As for `O=C(/C=C/c1ccccc1)OC1CN2CCC1CC2` (centres undefined), the activity change, negative = inhibition was inactive: 12.5%.

Take `CN(C(=O)Cc1ccccc1)[C@@H]1CC[C@]2(CCCO2)C[C@H]1N1CCCC1`: the activity change, negative = inhibition is inactive: 14.9% and inactive: -13%.

On to `CCOP1(=S)c2c(C)nn(CCC#N)c2N=C(c2ccc(F)cc2)N1C` (centres undefined), for which the activity change, negative = inhibition was inactive: -1.78%.

With `N#CCCN(C(=O)COC(=O)C(O)(c1ccccc1)c1ccccc1)c1ccc(F)cc1`, the activity change, negative = inhibition is inactive: 4.04%.

With `O=[N+]([O-])c1ccc2c(c1)nnn2O`, the activity change, negative = inhibition is inactive: 9.39%.

In the case of `O=P(Nc1nccs1)(Oc1ccccc1)Oc1ccccc1`, the activity change, negative = inhibition was inactive: 12.1%.

Take `O=P(Nc1nccs1)(c1ccccc1)c1nc2ccccc2s1` (centres undefined): the activity change, negative = inhibition is inactive: -9.62%.

Consider `CCOP1(=S)c2c(C)nn(CCC#N)c2N=C(c2ccccc2F)N1C` (centres undefined), for which the activity change, negative = inhibition was inactive: 2.8%.

Regarding `CS(=O)(=O)c1cc([N+](=O)[O-])c2no[n+]([O-])c2c1`, the activity change, negative = inhibition was inactive: 0.074%.

Turning to `O=C(O)COc1ccc([As](=O)(O)O)cc1[N+](=O)[O-]`, the activity change, negative = inhibition is inactive: 34.6%.

Consider `Nc1ccccc1[As](=O)(O)c1ccccc1`, for which the activity change, negative = inhibition is inactive: 1.86%.

For the compound `Nc1cccc2c([As](=O)(O)O)cccc12`, the activity change, negative = inhibition is inactive: 10.1%.

For `Cc1ccc(NCCc2c([N+](=O)[O-])cc([N+](=O)[O-])cc2[N+](=O)[O-])cc1`, the activity change, negative = inhibition was inactive: -8.73%.

`CCCOP(=S)(Nc1nc(N)cc(=O)[nH]1)OCCC`: the activity change, negative = inhibition was inactive: 27.6%.

Turning to `CCOP(=O)(Nc1cccc2ccccc12)OCC`, the activity change, negative = inhibition is inactive: -2.97%.

On to `COc1cc(C2NCCC3(OCCO3)C2(C)C)cc(OC)c1OC` (centres undefined), for which the activity change, negative = inhibition was inactive: 9.09%.

For `O=C(OC1CN2CCC1CC2)c1ccc(Cl)cc1` (centres undefined), the activity change, negative = inhibition was inactive: -0.513%.

Take `CS(=O)(=O)c1ccc(Cl)c(NC(=O)COC(=O)C(O)(c2ccccc2)c2ccccc2)c1`: the activity change, negative = inhibition is inactive: -2.28%.

In the case of `O=[As](O)(O)c1cccnc1`, the activity change, negative = inhibition is inactive: 1.38%.

For `COc1cc(C(=O)NCC2(N3CCOCC3)CCCCC2)cc(Cl)c1OC(C)C`, the activity change, negative = inhibition was inactive: 11%.

Turning to `O=[As](O)(c1cccc(O)c1)c1cccc(O)c1`, the activity change, negative = inhibition is inactive: 10.7%.
